Among the data in patent US6372183B1 (priority 1991, dated 2002) are IC50 and EC50 values, retold here.

Chains of the proteins cited; added tags and fusions are not shown.
UniProt Q01668, whole entry: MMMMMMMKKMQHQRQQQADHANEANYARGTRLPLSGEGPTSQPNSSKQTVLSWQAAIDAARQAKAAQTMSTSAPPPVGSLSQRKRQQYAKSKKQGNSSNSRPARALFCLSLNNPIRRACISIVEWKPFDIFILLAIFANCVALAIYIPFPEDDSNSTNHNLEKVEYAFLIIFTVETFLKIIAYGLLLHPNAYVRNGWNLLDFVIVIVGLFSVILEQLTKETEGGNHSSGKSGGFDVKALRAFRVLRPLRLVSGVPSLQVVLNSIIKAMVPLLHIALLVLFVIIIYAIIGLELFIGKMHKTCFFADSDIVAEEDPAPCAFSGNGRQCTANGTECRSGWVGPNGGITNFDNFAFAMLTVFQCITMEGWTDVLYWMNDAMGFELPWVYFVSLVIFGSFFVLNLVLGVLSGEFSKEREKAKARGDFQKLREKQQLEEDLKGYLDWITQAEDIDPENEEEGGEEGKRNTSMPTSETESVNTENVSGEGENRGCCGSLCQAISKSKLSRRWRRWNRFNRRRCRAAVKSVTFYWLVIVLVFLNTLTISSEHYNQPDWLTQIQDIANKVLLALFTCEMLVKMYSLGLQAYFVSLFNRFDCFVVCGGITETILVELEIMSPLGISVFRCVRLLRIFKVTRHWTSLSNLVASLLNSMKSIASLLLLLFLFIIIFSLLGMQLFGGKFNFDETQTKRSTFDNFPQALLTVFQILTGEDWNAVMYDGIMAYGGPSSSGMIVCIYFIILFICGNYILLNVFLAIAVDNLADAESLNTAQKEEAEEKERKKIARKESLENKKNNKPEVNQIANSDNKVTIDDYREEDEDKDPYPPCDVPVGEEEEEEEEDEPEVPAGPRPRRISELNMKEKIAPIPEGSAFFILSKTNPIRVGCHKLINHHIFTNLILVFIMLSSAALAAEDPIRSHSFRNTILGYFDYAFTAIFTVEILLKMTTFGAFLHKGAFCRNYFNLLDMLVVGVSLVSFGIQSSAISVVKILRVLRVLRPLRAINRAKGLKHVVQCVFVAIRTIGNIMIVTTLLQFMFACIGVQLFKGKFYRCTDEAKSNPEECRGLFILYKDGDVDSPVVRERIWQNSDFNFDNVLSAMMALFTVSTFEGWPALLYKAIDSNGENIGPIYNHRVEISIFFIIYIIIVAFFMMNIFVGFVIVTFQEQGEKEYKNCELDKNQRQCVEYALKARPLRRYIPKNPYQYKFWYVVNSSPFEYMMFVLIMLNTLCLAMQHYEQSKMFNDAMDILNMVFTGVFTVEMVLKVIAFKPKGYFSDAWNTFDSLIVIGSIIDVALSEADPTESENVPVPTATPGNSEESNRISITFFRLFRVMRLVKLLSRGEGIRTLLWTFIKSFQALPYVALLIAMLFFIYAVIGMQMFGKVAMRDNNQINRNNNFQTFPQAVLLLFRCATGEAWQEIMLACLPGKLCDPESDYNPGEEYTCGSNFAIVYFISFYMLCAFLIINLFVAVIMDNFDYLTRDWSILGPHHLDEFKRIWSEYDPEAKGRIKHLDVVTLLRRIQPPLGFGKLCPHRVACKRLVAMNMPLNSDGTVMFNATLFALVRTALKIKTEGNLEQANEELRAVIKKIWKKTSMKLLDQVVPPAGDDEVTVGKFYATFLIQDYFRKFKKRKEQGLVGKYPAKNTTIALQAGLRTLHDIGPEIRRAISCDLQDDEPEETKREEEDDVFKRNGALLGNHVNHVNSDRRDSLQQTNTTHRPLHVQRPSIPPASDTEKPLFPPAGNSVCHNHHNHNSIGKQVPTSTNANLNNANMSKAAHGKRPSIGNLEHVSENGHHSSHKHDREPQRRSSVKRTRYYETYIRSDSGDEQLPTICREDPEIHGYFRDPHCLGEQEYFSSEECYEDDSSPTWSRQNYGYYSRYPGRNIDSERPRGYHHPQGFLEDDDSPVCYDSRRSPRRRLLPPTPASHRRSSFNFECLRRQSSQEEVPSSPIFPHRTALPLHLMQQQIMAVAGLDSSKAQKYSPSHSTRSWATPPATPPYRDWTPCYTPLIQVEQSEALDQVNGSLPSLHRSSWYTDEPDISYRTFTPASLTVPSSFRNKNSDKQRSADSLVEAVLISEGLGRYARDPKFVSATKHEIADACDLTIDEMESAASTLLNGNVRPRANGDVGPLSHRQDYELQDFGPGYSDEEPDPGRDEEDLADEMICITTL

As a reminder, the IC50 is the concentration that inhibits the measured activity by half. Broadly, the EC50 is the concentration giving half of the maximal effect.

The target in the test is human neuronal calcium channel α1D, α2 and β subunits (Homo sapiens, UniProt Q01668). The settings on record: 13old cells, 50 mM KCl, estimated from dose-response curve.

As for cadmium, where the note is “read-out: IC50 for inhibition of the fluorescence response to KCl”, the IC50 is 3000 nM.

Regarding Bay K 8644 [BayK 8644], under “read-out: EC50 for the potentiation of fluorescence response to KCl”, the EC50 was 4.4 nM.
